Data as given in patent publication US20110039815A1, “MACROCYCLIC METAL COMPLEXES FOR THEIR USE AS ANTICANCER AGENTS” (priority 2005, published 2011).

In the case of ^Me3TacnRhCl3 [formula 8], the “solubility in 0.7% saline solution” value (0.7% saline solution) is reported as “limited solubility” and the “solubility in physiological saline solution” value (physiological saline solution) is reported as “up to 2.1×10^−2 molar”.
